## Apparent affinities of Ab-14 variants for a coronavirus HR2 peptide

All variants were tested on one target, the spike HR2 peptide PDVDLGDISGINAS (SARS-CoV-2).

Parent: Ab-14, a human scFv built as VH, a 15-residue (Gly4Ser)3 linker, VL. Only the CDRs of the light chain vary.
VH: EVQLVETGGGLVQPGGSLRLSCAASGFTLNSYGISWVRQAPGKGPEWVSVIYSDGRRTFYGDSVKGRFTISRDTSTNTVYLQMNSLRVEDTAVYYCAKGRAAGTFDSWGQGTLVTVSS
VL: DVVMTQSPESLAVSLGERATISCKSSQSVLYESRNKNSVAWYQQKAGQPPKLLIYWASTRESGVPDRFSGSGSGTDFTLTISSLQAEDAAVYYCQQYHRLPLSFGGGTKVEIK

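The parent was found by panning a naive human phage display library on the peptide. The library (AAYL50) carries one to three amino acid substitutions per variant, with no insertions or deletions. In AlphaSeq, yeast of one mating type display the scFv and yeast of the other type display the target. Pairs that bind mate more often; barcode pairs of the diploids are counted by sequencing. Scores were corrected for input abundance and mapped to Kd with protein pairs of known affinity run in the same pool. Mating was done three times.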

Changes read parent residue, position, new residue, counted from the first residue of the VL shown. All variants listed here change N37 of the VL, counted from its first residue. Kd is apparent (estimated from mating counts) and averaged on the log scale over replicates with a signal. Smaller is tighter. An entry "no signal" has no value in the source: the pair was not observed among the diploids in any replicate. This suggests poor binding but is not conclusive. For reference, the parent read 4.4 nM as the reference entry and 48 nM as a member of this library. Three control strains display no target. For library AAYL50, 18% of the pairings with them gave a signal, with a median of 15 µM and one signal in twenty below 970 nM, so weak values seen in few replicates may be background. Also given: how often the same scFv was detected with the empty control strains.

* S33G/N37G/L102D: 6.6 nM (3 of 3 replicates; controls 1 of 9)
* K24Y/N37V/Q96C: no signal (0 of 3 replicates; controls 0 of 9)
* L30F/E32F/N37W: 580 nM (3 of 3 replicates; controls 4 of 9)
* Y31D/N35S/N37M: 61 nM (3 of 3 replicates; controls 2 of 9)
* N37Q/W56C/A57S: 1.3 µM (3 of 3 replicates; controls 0 of 9)
* N37H/W56N/H98L: 2.1 nM (3 of 3 replicates; controls 1 of 9)
* S26P/N37G/T59E: 360 nM (3 of 3 replicates; controls 3 of 9)
* S25W/N35I/N37A: 760 nM (3 of 3 replicates; controls 2 of 9)
* S33F/N37D/Q96L: 9.9 µM (2 of 3 replicates; controls 0 of 9)
* N37L/V39N/A40M: no signal (0 of 3 replicates; controls 0 of 9)
* L30F/N37L/S62I: 2.7 µM (3 of 3 replicates; controls 0 of 9)
* L30S/N37K/H98W: 43 nM (3 of 3 replicates; controls 3 of 9)
* S33E/N37T: 130 nM (3 of 3 replicates; controls 1 of 9)
* N35I/N37I/L102K: 4.7 nM (3 of 3 replicates; controls 1 of 9)
* N37V/A40P/S62A: no signal (0 of 3 replicates; controls 1 of 9)
* S33I/N37W/R60I: no signal (0 of 3 replicates; controls 3 of 9)
* N37M/H98K/L102H: no signal (0 of 3 replicates; controls 0 of 9)
* V29P/N37V/R99D: no signal (0 of 3 replicates; controls 1 of 9)
* N37Y/R99Y/P101L: no signal (0 of 3 replicates; controls 1 of 9)
* S26Q/N37F/S58M: 28 nM (3 of 3 replicates; controls 0 of 9)
* N35I/N37E/Q95K: no signal (0 of 3 replicates; controls 2 of 9)
* N37M/V39W/A57R: 1.9 µM (1 of 3 replicates; controls 4 of 9)
* K24E/N37W: 140 nM (3 of 3 replicates; controls 0 of 9)
* K36M/N37Y/A57E: 550 nM (3 of 3 replicates; controls 5 of 9)
* S28P/S33A/N37C: 400 nM (3 of 3 replicates; controls 5 of 9)
* S33H/N37K/W56H: 4.3 nM (3 of 3 replicates; controls 0 of 9)
* S25E/N37I: 81 µM (2 of 3 replicates; controls 4 of 9)
* N37A/L100Q/L102N: 3.5 µM (1 of 3 replicates; controls 0 of 9)
* K36P/N37E/R60C: 12 µM (2 of 3 replicates; controls 5 of 9)
* V29A/N37T/W56L: 1.8 µM (1 of 3 replicates; controls 1 of 9)
* S33R/N37V/H98N: 4.2 nM (3 of 3 replicates; controls 2 of 9)
* S28W/N37H: 250 nM (3 of 3 replicates; controls 0 of 9)
* R34G/N37L/T59V: 7.7 nM (3 of 3 replicates; controls 1 of 9)
* N37G/R60E: 450 nM (3 of 3 replicates; controls 6 of 9)
* Y31K/N37A/Y97N: 5.2 µM (2 of 3 replicates; controls 0 of 9)
* N37E/V39C/S103F: 59 µM (1 of 3 replicates; controls 5 of 9)
* N37F/W56G/T59E: 3.2 nM (3 of 3 replicates; controls 1 of 9)
* S28Q/N37C/H98K: 890 nM (3 of 3 replicates; controls 0 of 9)
* S25I/N37F/P101A: no signal (0 of 3 replicates; controls 0 of 9)
* N37C/V39P/S58N: 17 µM (2 of 3 replicates; controls 0 of 9)
* S25V/N37G/S62G: 2.7 nM (3 of 3 replicates; controls 1 of 9)
* S33V/N37M/Q96Y: 170 nM (3 of 3 replicates; controls 0 of 9)

Repeated from above, the 5 best binders with a signal in all replicates:

{"changes": "N37H/W56N/H98L", "apparent Kd": "2.1 nM", "replicates with signal": "3/3", "control signals": "1/9"}
{"changes": "S25V/N37G/S62G", "apparent Kd": "2.7 nM", "replicates with signal": "3/3", "control signals": "1/9"}
{"changes": "N37F/W56G/T59E", "apparent Kd": "3.2 nM", "replicates with signal": "3/3", "control signals": "1/9"}
{"changes": "S33R/N37V/H98N", "apparent Kd": "4.2 nM", "replicates with signal": "3/3", "control signals": "2/9"}
{"changes": "S33H/N37K/W56H", "apparent Kd": "4.3 nM", "replicates with signal": "3/3", "control signals": "0/9"}

The measurements come from Engelhart et al. 2022 (doi:10.1038/s41597-022-01779-4) through the FLAb antibody collection.